Experimental data from US20130012465A1 (Boehringer Ingelheim International GmbH, priority 2009, published 2013).

System: triple negative mBC
Settings: patients with advanced triple-negative breast cancer
Experimental: A Phase II, open-label, multicenter trial was conducted in Belgium and Germany. Two Cohorts of patients were included: • Cohort A: Patients with triple negative mBC • Cohort B: Patients with HER2-negative, HR-positive mBC. • Primary endpoint for Cohort A and B initially was objective response as determined by response evaluation criteria in solid tumours (RECIST) criteria, as described by P. Therasse et al., J Natl Cancer Inst 2000, 92, 205-216. For Cohort A this was modified by amendment to clinical benefit (CB), i.e. complete response (CR), partial response (PR) and stable disease (SD) for at least 4 courses. • Secondary endpoints were time to progression, progression-free survival (PFS), overall survival (OS), time to objective response, duration of objective response, safety and pharmacokintics (PK). Clinical benefit (CR, PR, SD) was a secondary endpoint for Cohort B. • A total of 80 patients was planned to be enrolled into the trial: 80, i.e. 40 patients per cohort. […] Additional predose plasma samples were taken on Day 15 of Course 1, on Day 1 of Course 2 and on Day 1 of all subsequent courses (Course 3 onwards). […]
• HR-negative patients: estrogen receptor (ER) status and progesterone receptor (PgR) status must be assessed by immunohistochemistry (IHC) and Allred (Harvey J M et al., J Clin Oncol 1999, 17(5), 1474-1481).

CN(C)C/C=C/C(=O)Nc1cc2c(Nc3ccc(F)c(Cl)c3)ncnc2cc1O[C@H]1CCOC1 [BIBW 2992, 4-[(3-chloro-4-fluorophenyl)amino]-6-{[4-(N,N-dimethylamino)-1-oxo-2-buten-1-yl]amino}-7-((S)-tetrahydrofuran-3-yloxy)-quinazo line]
antitumour activity: showed antitumour activity in some patients
